Laboratory results: US20180092393A1, “IRON NICOTINATE COMPOSITION” (NESTEC S.A., priority 2015, published 2018)

Tests used:
[1] = colour difference vs product with no iron salts, approximately 2.1 mg iron per 100 g, flash pasteurized at 3.05° C. for 2 minutes, 47.3% banana puree

| Substance | ΔEab* [1] | ΔEab* ([1]; listed as ferrous nicotinate) | solubility in water |
| --- | --- | --- | --- |
| Ferric pyrophosphate [reference compound] | 3.36 |  |  |
| Ferrous nicotinate | 2.11 | smallest colour change | fully soluble |

Read-outs that look alike come from different tables or passages of the source.
